# Measured values as given in article PMC11381307 (Frontiers in Pharmacology, 2024).
# The chains behind the UniProt entries cited, without tags or fusion partners. Where a name states a change or a piece, a line headed by the entry shows the natural chain unless it says otherwise.
# UniProt Q92887: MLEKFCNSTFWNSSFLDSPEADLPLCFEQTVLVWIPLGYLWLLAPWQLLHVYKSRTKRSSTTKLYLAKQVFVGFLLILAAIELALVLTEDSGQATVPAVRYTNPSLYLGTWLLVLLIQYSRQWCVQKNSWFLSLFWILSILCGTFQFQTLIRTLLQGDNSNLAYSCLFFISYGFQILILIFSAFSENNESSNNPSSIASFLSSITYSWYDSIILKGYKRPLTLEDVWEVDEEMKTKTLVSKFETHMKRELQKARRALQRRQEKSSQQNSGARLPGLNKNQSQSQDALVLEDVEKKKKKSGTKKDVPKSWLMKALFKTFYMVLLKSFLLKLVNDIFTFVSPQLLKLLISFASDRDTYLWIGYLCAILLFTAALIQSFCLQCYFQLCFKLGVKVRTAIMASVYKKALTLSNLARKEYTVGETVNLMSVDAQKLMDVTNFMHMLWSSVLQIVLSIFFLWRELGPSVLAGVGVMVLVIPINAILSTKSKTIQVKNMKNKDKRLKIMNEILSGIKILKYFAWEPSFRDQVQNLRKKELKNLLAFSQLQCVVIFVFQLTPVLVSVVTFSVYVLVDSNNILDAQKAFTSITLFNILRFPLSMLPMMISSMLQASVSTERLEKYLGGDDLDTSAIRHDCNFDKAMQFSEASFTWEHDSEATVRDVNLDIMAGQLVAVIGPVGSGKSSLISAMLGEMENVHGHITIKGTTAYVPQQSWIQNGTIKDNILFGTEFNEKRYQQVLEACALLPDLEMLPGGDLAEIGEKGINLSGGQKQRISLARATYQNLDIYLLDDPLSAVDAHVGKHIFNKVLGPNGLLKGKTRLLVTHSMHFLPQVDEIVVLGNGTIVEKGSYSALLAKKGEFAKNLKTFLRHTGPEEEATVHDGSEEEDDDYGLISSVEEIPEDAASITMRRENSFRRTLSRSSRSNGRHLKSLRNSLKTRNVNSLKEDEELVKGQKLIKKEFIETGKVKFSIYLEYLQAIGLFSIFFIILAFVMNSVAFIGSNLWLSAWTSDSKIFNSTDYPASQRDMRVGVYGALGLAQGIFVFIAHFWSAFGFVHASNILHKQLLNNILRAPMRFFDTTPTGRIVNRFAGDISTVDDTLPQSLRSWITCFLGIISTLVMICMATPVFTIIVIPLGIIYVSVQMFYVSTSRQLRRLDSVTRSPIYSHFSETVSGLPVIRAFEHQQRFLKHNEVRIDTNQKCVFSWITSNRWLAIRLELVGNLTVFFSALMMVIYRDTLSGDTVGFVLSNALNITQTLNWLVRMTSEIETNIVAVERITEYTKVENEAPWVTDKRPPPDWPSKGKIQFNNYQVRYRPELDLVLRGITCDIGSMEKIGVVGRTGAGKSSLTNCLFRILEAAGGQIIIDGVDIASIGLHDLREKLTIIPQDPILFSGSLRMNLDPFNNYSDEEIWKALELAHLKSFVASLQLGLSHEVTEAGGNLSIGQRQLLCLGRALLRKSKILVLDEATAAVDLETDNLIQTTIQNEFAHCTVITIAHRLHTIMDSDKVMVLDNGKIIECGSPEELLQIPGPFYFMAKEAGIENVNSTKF
# What was measured:
# [1] = test system: UGT1A1/1A3; conditions: 96 h treatment, 100 μM substrate, 30 min
# [2] = test system: UGT1A9/2B7; conditions: 96 h treatment, 100 μM substrate, 30 min
# [3] = molecular target: MRP2 (Homo sapiens, UniProt Q92887); conditions: membrane vesicles
structure (smiles),measurement,setting,value
C[C@]12C=CC(=O)C=C1CC[C@@H]1[C@@H]2[C@@H](O)C[C@@]2(C)[C@H]1CC[C@]2(O)C(=O)CO [prednisolone],"β-estradiol glucuronidation activity, % of NC (Mean)",[1]; 0.5 μM,119 % of NC
same,"β-estradiol glucuronidation activity, % of NC (Mean)",[1]; 1 μM,122 % of NC
same,"β-estradiol glucuronidation activity, % of NC (Mean)",[1]; 5 μM,124 % of NC
same,"β-estradiol glucuronidation activity, % of NC (Mean)",[1]; 10 μM,123 % of NC
same,"β-estradiol glucuronidation activity, % of NC (Mean)",[1]; 50 μM,140 % of NC
same,"β-estradiol glucuronidation activity, % of NC (Mean)",[1]; 100 μM,134 % of NC
same,"4-trifluoromethyl-7-hydroxycoumarin glucuronidation activity, % of NC (Mean)",[2]; 0.5 μM,139 % of NC
same,"4-trifluoromethyl-7-hydroxycoumarin glucuronidation activity, % of NC (Mean)",[2]; 1 μM,157 % of NC
same,"4-trifluoromethyl-7-hydroxycoumarin glucuronidation activity, % of NC (Mean)",[2]; 5 μM,154 % of NC
same,"4-trifluoromethyl-7-hydroxycoumarin glucuronidation activity, % of NC (Mean)",[2]; 10 μM,154 % of NC
same,"4-trifluoromethyl-7-hydroxycoumarin glucuronidation activity, % of NC (Mean)",[2]; 50 μM,173 % of NC
same,"4-trifluoromethyl-7-hydroxycoumarin glucuronidation activity, % of NC (Mean)",[2]; 100 μM,155 % of NC
same,inhibition of MRP2-mediated MPAG uptake (in words),[3],not detected

# Read-outs that look alike come from different tables or passages of the source.
